Assay results taken from patent US8497349B2, “Use of multivalent synthetic ligands of surface nucleolin for treating cancer or inflammation” (Centre National de la Recherche Scientifique (CNRS), priority 2006, dated 2013).

Columns and labels:
TNF-α [1] = assay: TNF-α production by human primary PBMC stimulated by LPS (ELISA); type: cell-based; settings: for production of TNF-α in response to various LPS preparations: LPS 100 ng/ml, 20 hours
Experimental: (§1) FIG. 18. Inhibition by HB-19 of the production of TNF-α by primary human mononuclear peripheral blood cells (PBMC) stimulated by various LPS preparations. PBMCs were isolated by centrifugation on a Ficoll density gradient using whole human blood EDTA-potassium and resuspended in RPMI 1640 containing 1% human serum AB (Invitrogen). Cells at a concentration of 10^6 cell/0.5 ml, in the absence (O) or presence (1 and 5 μM) of HB-19, were stimulated with 100 ng/ml of LPS from Escherichia coli type 0111: B4 and 055:B5, and LPS from Salmonella enterica serotype Re 595. The same PBMCs were stimulated with PMA: Ionomycin (Phorbol 12-myristate 13-acetate: Ionomycin) at 20 ng/ml:1 μM. PBMC cultures were incubated at 37° C. in an incubator with 5% CO2 Levels of TNF-α protein were measured by ELISA in culture supernatants collected after 20 hours of incubation.
as §1, with “PBMCs” for “FIG. 18. Inhibition by HB-19 of the production of TNF-α by primary human mononuclear peripheral blood cells (PBMC) stimulated by various LPS preparations. PBMCs”, “absence (0)” for “absence (O)”, “type 0111:B4” for “type 0111: B4”, “12-myristate 13-acetate:Ionomycin)” for “12-myristate 13-acetate: Ionomycin)”, “5% CO2. The level” for “5% CO2 Levels”, “protein was” for “protein were”

TNF-α [2] = assay: TNF-α production by primary peritoneal murine macrophages stimulated by LPS (ELISA); type: cell-based, mouse; settings: 4 μM of HB-19; LPS 100 and 1000 ng/ml; base level taken into account
Experimental: (§2) FIG. 19. Inhibition by HB-19 of the production of TNF-α and IL-6 by primary peritoneal murine macrophages stimulated by various LPS preparations. Peritoneal murine macrophages in the absence (−) or presence (+) of 4 μM of HB-19 were either not stimulated (B4 0) or stimulated with LPS from Escherichia coli type 0111:B4 at 100 ng/ml (B4 100) and 1000 ng/ml (B4 1000). Cell cultures were incubated at 37° C. in an incubator with 5% CO2 for 20 hours and levels of TNF-α (A) and IL-6 (B) were measured by ELISA.
(§3) FIG. 20. Inhibition by Nucant 7 of the production of TNF-α and IL-6 by primary peritoneal murine macrophages stimulated by various LPS. Peritoneal murine macrophages in the absence (−) or presence (+) of 10 μM of Nucant 7 were either not stimulated (−) or stimulated (+) with LPS from Escherichia coli type 0111:B4 at 10 ng/ml, 100 ng/ml and 1000 ng/ml. Cell cultures were incubated at 37° C. in an incubator with 5% CO2 for 20 hours and levels of TNF-α (A) and IL-6 (B) were measured by ELISA. […]
(§4) Macrophages, in the absence (−) or presence (+) of 4 μM HB-19 or 10 μM Nucant 7, were either non-stimulated or stimulated with LPS from Escherichia Coli serotype 0111:B4 at 10 ng/ml, 100 ng/ml and 1000 ng/ml. […] TNF-α and IL-6 protein levels were measured by ELISA.

surface nucleolin = assay: Purification of proteins bound to HB19 after in vivo administration
Text: (§5) This greatly limits the possibility of the occurrence of side effects.

[3] = tested on: B16-BL6 mouse melanoma line; assay: Anchorage-independent growth of B16-BL6 on wet agar (colony count); type: cell-based; settings: 1 μM of HB-19; 10 days
Experimental: FIG. 7. Effect of anti-nucleolin (anti Nu) (A), and HB-19 (B) on B16-BL6 growth on wet agar. B16-BL6 cells are cultured in a culture medium with 0.35% agar on a 0.6% agar matrix. After 10 days in culture, colonies with a diameter greater than 50 μm were counted. 5 areas per well and each point in triplicate, (*p<0.05 and **p<0.01).
In parallel to these studies on cell proliferation, the role of nucleolin on anchorage-independent growth, the phenotype characteristic of transformed cells, was tested in a growth model on wet agar using the human mammary carcinoma line, MDA-MB-231, as well as a mouse melanoma line, B16-BL6.
In these experiments, cells were cultured on agar gel in the presence or absence of varying concentrations of the control anti-nucleolin antibodies, control immunoglobulins or compound HB-19. After 10 days of incubation at 37° C., the number of colonies present in each culture plate was counted.

ICAM-1 = ICAM-1 expression by HUVEC cells stimulated by LPS (ELISA); type: cell-based, human; settings: 5 μM of HB-19; LPS 100 ng/ml; 20 hours
Experimental: FIG. 21. Inhibition by HB-19 of IL-8 production and ICAM-1 expression by human umbilical vascular endothelial cells (HUVEC) stimulated by LPS. HUVEC cells at 10 000 cells/cm^2 were cultured in 96-well plates in EBM-2 medium containing 2% foetal calf serum. Cells in the absence or presence of 5 μM of HB-19 were stimulated with Escherichia coli serotype 055:B5 at 100 ng/ml. Cell cultures were incubated at 37° C. in an incubator with 5% CO2 for 20 hours and IL-8 and ICAM-1 protein levels were measured by ELISA. HUVEC cells in the presence or absence of 5 μM of HB-19 were used as the control for base levels.
HUVEC cells at a concentration of 10 000 cells/cm^2 were cultured in 96-well plates in EBM-2 medium containing 2% foetal calf serum. Cells in the absence or presence of 5 μM of HB-19 were stimulated by LPS from Escherichia coli serotype 055:B5 at 100 ng/ml. Cell cultures were incubated at 37° C. in an incubator with 5% CO2 for 20 hours. Levels of IL-8 and ICAM-1 were measured by ELISA. HUVEC cells in the absence or presence of 5 μm of HB-19 were used as a control to show the base level.

IL-6 = IL-6 production by primary peritoneal murine macrophages stimulated by LPS (ELISA); type: cell-based, mouse; settings: 4 μM of HB-19; LPS 100 and 1000 ng/ml; base level taken into account
Experimental: as §2, §3, §4

cells cultured in vitro = assay: Toxicity on cells cultured in vitro for several weeks in the presence of HB19; type: cell-based
Text: as §5

SMILES: CCCC[C@H](NC(=O)[C@H](CCCCNC(=O)[C@H](CCCNC(=N)N)NC(=O)[C@@H]1CCCN1C[C@@H](N)CCCCN)NC(=O)[C@H](CCC(=O)O)NC(=O)[C@H](CCCCNC(=O)[C@H](CCCNC(=N)N)NC(=O)[C@@H]1CCCN1C[C@@H](N)CCCCN)NC(=O)[C@@H]1CCCN1C(=O)CNC(=O)[C@H](CCCCNC(=O)[C@H](CCCNC(=N)N)NC(=O)[C@@H]1CCCN1C[C@@H](N)CCCCN)NC(=O)[C@H](CCCCN)NC(=O)[C@H](CCCCNC(=O)[C@H](CCCNC(=N)N)NC(=O)[C@@H]1CCCN1C[C@@H](N)CCCCN)NC(=O)[C@H](CCCNC(=N)N)NC(=O)[C@@H]1CCCN1C[C@@H](N)CCCCN)C(N)=O [HB19, 5[Kpsi(CH2N)PR]-TASP]
- production of TNF-α in response to various LPS preparations (TNF-α [1]; 5 μM of HB-19): inhibited to a similar degree to the base level
- production of TNF-α in response to various LPS preparations (TNF-α [1]; 1 and 5 μM): inhibits the production of TNF-α by PBMC in a dose-dependent manner
- production of TNF-α in response to PMA-Ionomycin (TNF-α [1]; PMA:Ionomycin 20 ng/ml:1 μM): does not have an effect
- constitutive production of TNF-α (TNF-α [1]; freshly isolated PBMC, no stimulation): not affected
- net degree of inhibition of TNF-α production (TNF-α [2]): 72-75%
- surface nucleolin among purified proteins bound to the compound (surface nucleolin): over 90%
- inhibition of the number of clones [3]: > 50%
- degree of inhibition of ICAM-1 production (ICAM-1): around 50%
- net degree of inhibition of IL-6 production (IL-6): 68-71%
- toxic effect on cells cultured in vitro (cells cultured in vitro): no toxic effect
